# According to PubChem BioAssay AID504454 (NMMLSC, 2011):
# Sequences of proteins named here, by UniProt entry; tags and fusion partners are left off.
# UniProt P07550, whole entry: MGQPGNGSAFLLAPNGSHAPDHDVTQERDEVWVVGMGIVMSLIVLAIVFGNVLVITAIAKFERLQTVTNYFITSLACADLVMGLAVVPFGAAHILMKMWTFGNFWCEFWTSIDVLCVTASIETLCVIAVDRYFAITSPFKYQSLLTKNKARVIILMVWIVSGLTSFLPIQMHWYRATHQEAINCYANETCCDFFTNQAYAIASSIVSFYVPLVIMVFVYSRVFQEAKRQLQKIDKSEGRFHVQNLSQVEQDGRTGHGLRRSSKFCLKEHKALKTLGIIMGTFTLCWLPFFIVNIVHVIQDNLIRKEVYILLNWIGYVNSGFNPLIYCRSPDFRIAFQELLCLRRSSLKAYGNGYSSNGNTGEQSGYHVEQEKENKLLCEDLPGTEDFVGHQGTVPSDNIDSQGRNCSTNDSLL
# The entries are a selection whose mix differs from that of the whole data set. Activity calls are given as the source filed them.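 Rule for the calls: active = response above a set limit, near 3 SD of response in nonfluorescent compounds (cut at about 42% in these data); inactive = the rest.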
# Molecular target: Beta-2 adrenergic receptor (Homo sapiens) (UniProt P07550)
# Assay: agonist-induced loss of surface beta2AR – cell-based, FAP fluorogen, flow cytometry, primary screen (AID 504454)
# Settings: Am2.2-beta2AR cells, FAP receptor internalization, hits give high values, concentration not given here
row,SMILES,response
1,COC(=O)C1(C)COP(=O)(Nc2ccccc2)OC1 (stereo not given),inactive: -2.48%
2,O=[N+]([O-])c1cccc(NC2=NCC(CBr)S2)c1 (stereo not given),inactive: 3.17%
3,O=C(O)CNc1ccc([As](=O)(O)O)cc1,inactive: -6.03%
4,CC(C)(C)C(=O)NC(Sc1ccncn1)C(Cl)(Cl)Cl (stereo not given),inactive: 2.21%
5,O=[N+]([O-])c1ncn(CCn2ncnc2[N+](=O)[O-])n1,inactive: 3.8%
6,CCOC(=O)c1ccc(NP(C)(=O)Oc2ccc(Cl)cc2)cc1 (stereo not given),inactive: -8.25%
7,O=C(Nc1cc([As](=O)(O)O)ccc1O)c1ccccc1,inactive: -3.53%
8,CP(=O)(OC12CC3CC(CC(C3)C1)C2)OC12CC3CC(CC(C3)C1)C2,inactive: -6.02%
9,Nc1ccc2c(ccc3cccnc32)n1.O=[N+]([O-])c1cc([N+](=O)[O-])c(O)c([N+](=O)[O-])c1,inactive: 16.8%
10,O=P1(N(CCCl)CCCl)OCCCS1 (stereo not given),inactive: -8.16%
11,CC(C)=N/N=C(\N)N[N+](=O)[O-],inactive: -6.58%
12,CN(C)C(=O)c1c([N+](=O)[O-])cc([N+](=O)[O-])cc1[N+](=O)[O-],inactive: 7.68%
13,CN(C)C(=O)OCCc1n(C)cc[n+]1C,inactive: -10.1%
14,CC1CCN(C(=O)Oc2c(Cl)cc(Cl)c3cccnc23)CC1,inactive: 4%
15,COc1ccccc1OP(C)(=O)Nc1ccccc1Br (stereo not given),inactive: -1.33%
16,Nc1ccc([As](=O)(O)c2ccc(N)cc2)cc1,inactive: -2.96%
17,CC(C)(C)c1ccc(OP(C)(=O)O)cc1,inactive: 5.91%
18,C[N+]1=C2C=CC=CC=C2SC12C([N+](=O)[O-])=CC([N+](=O)[O-])=C[C-]2[N+](=O)[O-] (stereo not given),inactive: 41.8%
19,CCN(/C(=N/P(=O)(N1CCOCC1)N1CCOCC1)N1CCOCC1)c1ccc(OC)cc1,inactive: -4.64%
20,CP(=O)(Nc1ccc(Cl)cc1)Oc1ccc(F)cc1 (stereo not given),inactive: 0.43%
21,CC(=O)N1C2C3N(C(C)=O)C1C1N(C(C)=O)C(C(N1C(C)=O)N3C(C)=O)N2C(C)=O,inactive: 3.47%
22,O=[N+]([O-])c1cccc2n[nH]nc12,inactive: 6.55%

row,SMILES,response
1,COc1ccccc1OP(C)(=O)Nc1c(C)n(C)n(-c2ccccc2)c1=O (stereo not given),inactive: -0.5%
2,O=C(OCCCN1CCCC1)C(O)(c1ccccc1)C1CCCCC1 (stereo not given),inactive: 3.93%
3,Cc1ccc(NP(=O)(Oc2ccccc2)Oc2ccccc2)nc1,inactive: -7.82%
4,CP(=O)(Oc1ccccc1)N1CCOC1=O (stereo not given),inactive: 3.73%
5,CCc1ccc(OP(C)(=O)Nc2cccnc2)cc1 (stereo not given),inactive: -2.29%
6,O=[N+]([O-])c1cc([N+](=O)[O-])c(CCNc2ccccc2)c([N+](=O)[O-])c1,inactive: 0.8%
7,CCc1nc2c(n1)c1c(non1O)c1c2no[n+]1[O-],inactive: 13.2%
8,CCN(CC)CC(O)COC(=O)C(O)(c1ccccc1)C1CCCCC1 (stereo not given),inactive: -27.1%
9,COc1ccc(C2=NCC(CBr)S2)cc1 (stereo not given),inactive: -2.93%
10,COc1ccc(OP(C)(=O)Nc2ccc(Br)cc2)cc1 (stereo not given),inactive: -3.64%
11,CP(=O)(Nc1ccccn1)Oc1ccccc1 (stereo not given),inactive: 0.15%
12,COc1ccccc1OP(C)(=O)Nc1ccc(C)cc1C (stereo not given),inactive: 2.21%
13,CCc1ccc(OP(C)(=O)O)cc1,inactive: 1.32%
14,Nc1cc(N)c2nonc2c1[N+](=O)[O-],inactive: 1.65%
15,Cc1c(NP(C)(=O)Oc2ccc(C(C)C)cc2)c(=O)n(-c2ccccc2)n1C (stereo not given),inactive: -9.56%
16,O=[N+]([O-])c1cc([N+](=O)[O-])c(Nc2ccccn2)c([N+](=O)[O-])c1,inactive: 18.5%
17,CC(C)CC(=O)NC(Sc1ccc(Cl)cc1)C(Cl)(Cl)Cl (stereo not given),inactive: 0.1%
18,Oc1ccccc1CNc1ccccn1,inactive: -3.26%
19,O=C(NC(Sc1ccncn1)C(Cl)(Cl)Cl)c1ccccc1 (stereo not given),inactive: -4.32%
20,COc1ccccc1OP(=O)(Nc1ccc(C)cn1)Oc1ccccc1OC,inactive: 5.95%
21,COc1ccc(OP(C)(=O)Nc2ccccn2)cc1 (stereo not given),inactive: 11.3%
22,Cc1ccc(OP(=O)(Nc2nccs2)Oc2ccc(C)cc2)cc1,inactive: 6.84%

row,SMILES,response
1,CN1CCCC(OC(=O)C(c2ccccc2)c2ccccc2)C1 (stereo not given),inactive: 0.75%
2,CN(C)CCOC(=O)C(O)(c1ccccc1)C1CCCC1 (stereo not given),inactive: -2.37%
3,Clc1ccc(Cl)c(NC2=NCC(CBr)S2)c1 (stereo not given),inactive: 17.4%
4,NC(=O)c1cc([N+](=O)[O-])cc([N+](=O)[O-])c1N,inactive: -6.24%
5,CN(C(=O)Cc1ccc(Cl)c(Cl)c1)[C@H]1CCCC[C@H]1N1CCCC1,inactive: -5.53%
6,COc1ccccc1OP(C)(=O)Nc1ccc(Br)cc1 (stereo not given),inactive: -4.55%
7,Cc1ccc(N/C(=N/P(=O)(N2CCOCC2)N2CCOCC2)N2CCOCC2)cc1,inactive: 1.55%
8,CCN(N=Nc1nonc1N)c1nonc1N,inactive: 4.75%
9,Nc1cccc2ccc([As](=O)(O)O)cc12,inactive: 8.35%
10,CP(=O)(Nc1ccc(Cl)cc1Cl)Oc1ccccc1 (stereo not given),inactive: 5.03%
11,CCCCCCCCCCCCCCCC1C[N+](C)(C)CCOP(C)(=O)O1 (stereo not given),inactive: 4.49%
12,CP(=O)(OCCOc1ccccc1)OCCOc1ccccc1,inactive: 6.57%
13,Cc1cc(SC(NC(=O)c2ccc(F)cc2)C(Cl)(Cl)Cl)ncn1 (stereo not given),inactive: 3.37%
14,CCOP(=O)(Nc1ccccc1)OCC,inactive: -2.59%
15,COc1ccccc1OP(C)(=O)Nc1ccc(C)c(C)c1 (stereo not given),inactive: 10.6%
16,CN(C(=O)Cc1ccc(Cl)c(Cl)c1)[C@H]1CCCC[C@@H]1N1CCCC1,inactive: -7.93%
17,Cc1ccc(NP(=O)(Oc2ccccc2F)Oc2ccccc2F)nc1,inactive: -2.39%
18,COc1ccc(OP(C)(=O)Nc2ccccc2Br)cc1 (stereo not given),inactive: -0.36%
19,CC(=O)Nc1ccc([As](=O)(O)O)cc1,inactive: -13.5%
20,O=C(O)c1ccccc1[As](=O)(O)O,inactive: -7.33%
21,CCCC1OP(N)(=O)OCC1CC (stereo not given),inactive: 6.47%
